Measured values from publication PMC3651692 (Bioorganic & medicinal chemistry letters, 2013).
pKi: −log10 of the molar value.

Amino acid sequences for entries named in this document (tags omitted). A change or cut given only in a name is not applied to a line headed by its entry.
UniProt P35372, whole entry, species assumed: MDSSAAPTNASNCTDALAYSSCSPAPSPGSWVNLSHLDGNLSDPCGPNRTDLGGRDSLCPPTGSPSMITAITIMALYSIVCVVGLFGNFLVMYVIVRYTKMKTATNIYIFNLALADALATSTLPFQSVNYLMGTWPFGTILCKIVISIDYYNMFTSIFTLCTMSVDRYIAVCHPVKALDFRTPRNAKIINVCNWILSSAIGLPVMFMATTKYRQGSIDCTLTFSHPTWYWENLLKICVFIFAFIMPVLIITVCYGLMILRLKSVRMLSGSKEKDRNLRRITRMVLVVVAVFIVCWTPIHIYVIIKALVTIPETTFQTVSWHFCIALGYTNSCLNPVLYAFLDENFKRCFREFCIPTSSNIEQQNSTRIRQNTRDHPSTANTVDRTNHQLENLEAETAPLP
UniProt P41145: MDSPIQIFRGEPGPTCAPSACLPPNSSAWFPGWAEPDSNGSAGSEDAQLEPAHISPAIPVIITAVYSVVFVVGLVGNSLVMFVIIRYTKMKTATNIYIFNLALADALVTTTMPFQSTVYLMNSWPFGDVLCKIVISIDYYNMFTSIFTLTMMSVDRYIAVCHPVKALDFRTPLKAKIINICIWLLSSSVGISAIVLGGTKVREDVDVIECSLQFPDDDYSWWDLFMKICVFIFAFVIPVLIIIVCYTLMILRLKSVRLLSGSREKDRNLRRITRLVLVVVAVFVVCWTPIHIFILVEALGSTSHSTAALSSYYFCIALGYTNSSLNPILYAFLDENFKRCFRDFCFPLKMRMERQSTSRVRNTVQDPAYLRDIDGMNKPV

Experiments:
μ-opioid receptor (MOR) = μ-opioid receptor (MOR) (Homo sapiens, UniProt P35372); format: binding; conditions: read-out: Affinities Ki± SD MOR
κ-opioid receptor (KOR) = κ-opioid receptor (KOR) (Homo sapiens, UniProt P41145); format: binding

SMILES	pKi (μ-opioid receptor (MOR))	Selectivity DOR/KOR (κ-opioid receptor (KOR))	Selectivity MOR/KOR (κ-opioid receptor (KOR))
COC(=O)[C@@H]1C[C@H](OC(C)=O)C(=O)[C@H]2[C@@]1(C)CC[C@H]1C(=O)O[C@H](c3ccoc3)C[C@]21C [Compound 1, salvinorin A, reference compound]	< 5.00		
COC(=O)[C@@H]1C[C@H](OC(=O)CCC(=O)O)C(=O)[C@H]2[C@@]1(C)CC[C@H]1C(=O)O[C@H](c3ccoc3)C[C@]21C [Compound 11]		>2	>2
